Assay results: patent publication US20250122202A1, “EGFR INHIBITOR, PREPARATION METHOD THEREFOR AND USE THEREOF” (SHANDONG NEW TIME PHARMACEUTICAL CO., LTD., priority 2021, published 2025)

Experiments:
A549 EGFR-WT = test: Cell proliferation inhibition experiment (CCK-8), A549; settings: read-out: cell proliferation inhibition IC50 (μM) A549, 72 h, Table 5 numeric
[1] = system: KC-0122:BaF3 EGFR-L858R/T790M/C797S; test: Cell proliferation inhibition experiment (CCK-8), KC-0122; settings: read-out: cell proliferation inhibition IC50 (μM) KC-0122, 72 h, Table 5 numeric
[2] = system: KC-0116:BaF3 EGFR-Del19/T790M/C797S; test: Cell proliferation inhibition experiment (CCK-8), KC-0116; settings: read-out: cell proliferation inhibition IC50 (μM) KC-0116, 72 h, Table 5 numeric

**Q.** Which IC50 (A549 EGFR-WT) does the source give for “(R)-2-(4-(4-methyl-1-piperazin)-1-phenylamino)-4-(1-cyclopropylsulfonyl-3-piperidinamino)-5-(2-methylpropanoyl)-7H-pyrrolo[2,3-d]pyrimidine” here?
**A.** 7 µM

**Q.** What about the IC50 [1] of the same substance?
**A.** 0.36 µM

**Q.** And the IC50 [2]?
**A.** 0.65 µM
